Data as given in PubChem BioAssay AID651719 (The Scripps Research Institute Molecular Screening Center, 2012).
This is a selection; strong and weak results do not stand in their true shares. Some salts or complexes appear as unconnected parts, following the source record. Calls of active or inactive are those of the source.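 How the source made its calls: active means inhibition above the screen-wide average plus 3 SD (cut at about 13% in these data); inactive means the rest.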

By UniProt entry, the sequences of proteins in these tests, tags left out. Residues count along the entry.
UniProt O60755, 1-299 limits assumed: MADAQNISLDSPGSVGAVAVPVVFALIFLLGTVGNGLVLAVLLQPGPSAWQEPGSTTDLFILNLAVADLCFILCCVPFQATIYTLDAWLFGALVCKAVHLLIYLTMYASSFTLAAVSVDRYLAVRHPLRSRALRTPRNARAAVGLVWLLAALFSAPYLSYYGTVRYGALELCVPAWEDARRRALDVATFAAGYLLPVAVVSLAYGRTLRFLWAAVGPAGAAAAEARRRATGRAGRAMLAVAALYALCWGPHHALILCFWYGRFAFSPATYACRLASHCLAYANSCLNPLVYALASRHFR

Biological target: Galanin receptor type 3 (Homo sapiens) (UniProt O60755)
Assay: GalR3 antagonists in HEK293 cells, primary screen, cell-based, fluorescence readout (AID 651719);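 further: forskolin and galanin both at EC90 stimulate the cells; cAMP rise reported by CNG channel membrane potential dye signal; 0% = forskolin plus galanin with DMSO and 100% = forskolin alone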
Settings: HEK293 GalR3-CNG cAMP membrane potential fluorescence; at 3 µM; active compounds read high; galR3 body fused to GalR1 C-terminus

SMILES | inhibition
COc1ccccc1OP(C)(=O)Nc1ccc(Br)cc1 (configuration not stated) | inactive: 4.1%
COc1ccc(OP(C)(=O)Nc2ccccn2)cc1 (configuration not stated) | inactive: -1.27%
CN(C)CCOC(=O)C(O)(c1ccccc1)C1CCCC1 (configuration not stated) | inactive: -4.16%
O=[N+]([O-])c1cc([N+](=O)[O-])c(Nc2ccccn2)c([N+](=O)[O-])c1 | inactive: -5.99%
Cc1c(NP(C)(=O)Oc2ccc(C(C)C)cc2)c(=O)n(-c2ccccc2)n1C (configuration not stated) | inactive: -6.8%
CP(=O)(Nc1ccccn1)Oc1ccccc1 (configuration not stated) | inactive: -4.16%
COc1ccccc1OP(C)(=O)Nc1ccc(C)cc1C (configuration not stated) | inactive: 3.9%
CCc1ccc(OP(C)(=O)O)cc1 | inactive: 0.7%
O=C1C(O)=C([N+](=O)[O-])C(=O)C(O)=C1[N+](=O)[O-] | inactive: -3.47%
Cc1cc(C)cc(OP(C)(=O)Nc2cccc(C(F)(F)F)c2)c1 (configuration not stated) | inactive: -9.5%
COc1ccccc1OP(C)(=O)Nc1ccc(C)c(C)c1 (configuration not stated) | inactive: -0.86%
COc1ccc(OP(C)(=O)Nc2ccccc2Br)cc1 (configuration not stated) | inactive: 0.8%
CP(=O)(OCCOc1ccccc1)OCCOc1ccccc1 | inactive: -6.33%
CCCCCCCCCCCCCCCC1C[N+](C)(C)CCOP(C)(=O)O1 (configuration not stated) | inactive: -5.58%
CP(=O)(Nc1ccc(Cl)cc1Cl)Oc1ccccc1 (configuration not stated) | inactive: -0.77%
CCN(CC)CCCNc1ccccc1[N+](=O)[O-].O=[N+]([O-])c1cc([N+](=O)[O-])c(O)c([N+](=O)[O-])c1 | inactive: -6.81%
CCOC(=O)c1ccc(NP(C)(=O)Oc2ccc(F)cc2)cc1 (configuration not stated) | inactive: 1.92%
COc1ccc(OP(C)(=O)Nc2ccc(SC(F)(F)F)cc2)cc1 (configuration not stated) | inactive: -6.61%
Cc1c([N+](=O)[O-])cc([N+](=O)[O-])c(Br)c1[N+](=O)[O-] | inactive: -6.19%
CCN(CC)CCCOC(=O)C(O)(c1ccccc1)C1CCCCC1 (configuration not stated) | inactive: 3.84%
CP(=O)(Nc1ccccc1)Oc1ccc(F)cc1 (configuration not stated) | inactive: 5.94%

SMILES | inhibition
CCCCCOc1ccc(NP(C)(=O)Oc2ccc(Cl)cc2Cl)cc1 (configuration not stated) | inactive: -5.65%
O=[N+]([O-])c1cc([N+](=O)[O-])c(OC2CCCCC2O)c([N+](=O)[O-])c1 (configuration not stated) | inactive: -9.55%
O=[N+]([O-])c1cc([N+](=O)[O-])c(Nc2ccc(Cl)cc2)c([N+](=O)[O-])c1 | active: 57.1%
CP(=O)(Nc1ccccc1F)Oc1ccccc1 (configuration not stated) | inactive: 1.7%
CC(C)c1ccc(OP(C)(=O)Nc2ccc(SC(F)(F)F)cc2)cc1 (configuration not stated) | inactive: -5.45%
O=C(OC1CN2CCC1CC2)c1ccc([N+](=O)[O-])cc1 (configuration not stated) | inactive: -0.24%
O=C(OCCN1CCN(CCOCc2ccccc2)CC1)C(O)(c1ccccc1)c1ccccc1 | inactive: -5.87%
COc1ccc2c(c1O)-c1c(O)c(OC)cc3c1[C@H](C2)[N+](C)(C)CC3.O=[N+]([O-])c1cc([N+](=O)[O-])c([O-])c([N+](=O)[O-])c1[O-] | inactive: -2.96%
CP(=O)(Nc1ccc(SC(F)(F)F)cc1)Oc1ccc(F)cc1 (configuration not stated) | inactive: -7.82%
CCOP(C)(=S)SCC(=O)NC(C)(CC)C(=O)O (configuration not stated) | inactive: -5.22%
CCOP(=O)(CC)OCC | inactive: 0.7%
CP(=O)(Nc1ccc2c(c1)OCCO2)Oc1ccccc1 (configuration not stated) | inactive: 0.72%
Cc1ccccc1NP(C)(=O)Nc1ccccc1C | inactive: -1.2%
O=[N+]([O-])c1cc([N+](=O)[O-])c(C(F)(F)F)c([N+](=O)[O-])c1O | inactive: -2%
COc1ccc(OP(C)(=O)Nc2cccc(Br)c2)cc1 (configuration not stated) | inactive: -3%
CN(C)CCOC(=O)C(O)(c1ccccc1)C1CCCCC1 (configuration not stated) | inactive: -5.44%
COc1ccc(NP(C)(=O)Oc2ccccc2OC)cc1 (configuration not stated) | inactive: 3.04%
O=[N+]([O-])c1ccc(OP2(=O)COCCO2)cc1 (configuration not stated) | inactive: -9.34%
O=[N+]([O-])c1cc([N+](=O)[O-])c(NCC2CCS(=O)(=O)C2)c([N+](=O)[O-])c1 (configuration not stated) | inactive: -5.84%
Cc1cc(-c2cccc3ccccc23)c(C)cn1.O=[N+]([O-])c1cc([N+](=O)[O-])c(O)c([N+](=O)[O-])c1 | inactive: -6.43%
Cc1c(C(c2ccc3c(c2)OCO3)c2c(C)n(C)n(-c3ccccc3)c2=O)c(=O)n(-c2ccccc2)n1C.O=[N+]([O-])c1cc([N+](=O)[O-])c(O)c([N+](=O)[O-])c1 | inactive: -4.33%
